Laboratory results reported in patent US8748624B2, “Picolinamido-propanoic acid derivatives useful as glucagon receptor antagonists” (Janssen Pharmaceutica NV, priority 2011, dated 2014).

Sequences of proteins named here, by UniProt entry; tags and fusion partners are left off. Residues count along the entry.
UniProt P47871, 26-477: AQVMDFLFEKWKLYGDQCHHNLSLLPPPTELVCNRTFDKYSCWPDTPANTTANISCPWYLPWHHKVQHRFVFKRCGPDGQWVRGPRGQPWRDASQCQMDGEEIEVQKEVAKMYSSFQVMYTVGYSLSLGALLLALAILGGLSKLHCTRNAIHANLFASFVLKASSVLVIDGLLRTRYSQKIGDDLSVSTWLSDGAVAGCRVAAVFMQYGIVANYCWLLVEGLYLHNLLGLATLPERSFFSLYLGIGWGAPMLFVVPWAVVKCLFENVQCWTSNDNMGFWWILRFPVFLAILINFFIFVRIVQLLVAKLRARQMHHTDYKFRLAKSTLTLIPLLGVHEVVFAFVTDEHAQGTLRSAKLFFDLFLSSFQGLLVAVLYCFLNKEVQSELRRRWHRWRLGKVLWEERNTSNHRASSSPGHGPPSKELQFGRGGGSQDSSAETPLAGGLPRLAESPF

How the values were obtained:
[1] = molecular target: human glucagon receptor (GCGR) (Homo sapiens (Human), UniProt P47871); test: Inhibition of 125I-glucagon binding to membranes from HEK293 cells expressing the human glucagon receptor; conditions: membranes of hGluc-1 HEK cells, 125I-glucagon 0.3 nM, 2 hours room temperature; IC50 converted to Ki; average if tested more than once
Description: Inhibition ^125I-Glucagon Binding to Membranes from HEK293 Cells Expressing the Human Glucagon Receptor (GCGR)
Full-length human GCGR (Accession Number: NM000160) subcloned into pcDNA3.1 was stably transfected into HEK293 cells (hGluc-1 HEK) and maintained under G418 selection (500 μg/mL). Cell cultures were maintained in DMEM/F12 media supplemented with 10% FBS and 1% GlutaMax. Membranes were prepared from these cells as follows: cells were harvested from T225 flasks and re-suspended in hypotonic lysis buffer, 50 mM HEPES pH 7.4 supplemented with Complete Protease inhibitors (Boehringer Mannheim, Indianapolis, Ind.). Cells were dounced 20 times on ice and spun at 700×g to remove nuclei and unlysed cells. The resulting pellet was re-suspended in hypotonic lysis buffer and the above step was repeated. Supernatants from the low speed centrifugation were combined and subsequently spun at 100K×g for 1 hr at 4° C. and the resulting pellet was re-suspended in buffer containing 50 mM HEPES pH 7.4 and 10% sucrose and the protein concentration was adjusted at 1 mg/mL as determined in the BCA assay. Membranes were aliquoted and stored at −80° C. The binding assay was performed by a filtration method in a 384 well format. Membranes at a final protein concentration of 6 μg/well were incubated with ^125I-glucagon at 0.3 nM and in the presence of compound for 2 hours at room temperature in a total reaction volume of 40 μL per well. Assay buffer consisted of 50 mM HEPES, pH 7.4, 5 mM MgCl2, 1 mM CaCl2 and 0.2% BSA. 30 μL of the reaction was then transferred to PEI treated filter plates and followed by filter aspiration. Plates were then washed 5× and allowed to dry at room temperature overnight. The next day the bottom of the plate was covered with seal tape and scintillant was added. Total counts retained by the filters were quantified with a Top Count instrument. IC50's were generated by using a non-linear regression macro driven in Excel and converted to K's.

human GCGR = human GCGR (Homo sapiens (Human), UniProt P47871); test: Cellular functional assay, cAMP readout (glucagon-stimulated cAMP in HEK293 cells expressing human GCGR); assay type: cell-based; conditions: hGluc-1 HEK cells, LANCE TR-FRET, IC50 converted to Ki, average if tested more than once
Description: IC50 Values in Cellular Functional Assays: cAMP Readout
Full-length human GCGR (Accession Number: NM000160) subcloned into pcDNA3.1 was stably transfected into HEK293 cells (hGluc-1 HEK) and maintained under G418 selection (500 μg/mL). Cell cultures were maintained in DMEM/F12 media supplemented with 10% FBS and 1% GlutaMax. Glucagon stimulated cAMP was quantified using LANCE technology as per manufacturer instructions. On the day of the experiment, spent media was removed and cells were washed with Hank's Buffered Saline solution (HBSS) and cells were harvested with non-enzymatic cell dissociation solution, then washed once with HBSS. Cells were re-suspended in stimulation buffer at a concentration of 0.83×10^6 cells/ml and cAMP detection antibody was added. 6 μl/well of this solution was then dispensed in a 384 well plate (cell density 5000 cells/well). Test compound was serially diluted in DMSO and 50 nl were dispensed on top of the cell solution and allowed to incubate for 30 minutes. 6 μl of a 2× glucagon solution (final concentration in assay […]) was then added and the reaction was terminated after 5 minutes with the addition of detection mix. The mixture was incubated, protected from light for 1.5 h. cAMP levels were quantified by TR-FRET in an EnVision instrument against a known standard. IC50's were generated by using a non-linear regression macro driven in Excel and converted to K, values.

| Ki [1] [nM] | Ki (human GCGR) [nM] | SMILES |
| --- | --- | --- |
| 65.1 | 94.8 | O=C(O)CCNC(=O)c1ccc(-c2cc(Cl)ccc2CNc2ccc(-c3cccc(Cl)c3)cc2)cn1 [Compound 14, 3-(5-(5-chloro-2-(((3′-chloro-[1,1′-biphenyl]-4-yl)amino)methyl)phenyl)picolinamido)propanoic acid] |
| 19.4 | 56.6 | O=C(O)CCNC(=O)c1ccc(-c2cc(C(F)(F)F)ccc2CNc2ccc(-c3ccc(Cl)cc3Cl)cc2)cn1 [Compound 21, 3-(5-(2-(((2′,4′-dichloro-[1,1′-biphenyl]-4-yl)amino)methyl)-5-(trifluoromethyl)phenyl)picolinamido)propanoic acid] |
| 19.9 | 110 | O=C(O)CCNC(=O)c1ccc(-c2cc(Cl)ccc2CNc2ccc(-c3ccc(F)cc3)c(Cl)c2)cn1 [Compound 52, 3-(5-(5-chloro-2-(((2-chloro-4′-fluoro-[1,1′-biphenyl]-4-yl)amino)methyl)phenyl)picolinamido)propanoic acid] |
| 95.7 | 1850 | O=C(O)CCNC(=O)c1ccc(-c2c(CNc3ccc(-c4ccc(Cl)cc4)cc3)cccc2C(F)(F)F)cn1 [Compound 64, 3-(5-(2-(((4′-chloro-[1,1′-biphenyl]-4-yl)amino)methyl)-6-(trifluoromethyl)phenyl)picolinamido)propanoic acid] |
| 20.3 | 13.5 | O=C(O)CCNC(=O)c1ccc(-c2cc(C(F)(F)F)cc(Cl)c2CNc2ccc(-c3ccc(Cl)cc3Cl)cc2)cn1 [Compound 72, 3-(5-(3-chloro-2-(((2′,4′-dichloro-[1,1′-biphenyl]-4-yl)amino)methyl)-5-(trifluoromethyl)phenyl)picolinamido)propanoic acid] |
| 183 | 1700 | N#Cc1cc(NCc2cc(F)c(F)cc2-c2ccc(C(=O)NCCC(=O)O)nc2)ccc1-c1cc(F)cc(C(F)(F)F)c1 [Compound 116, 3-(5-(2-(((2-cyano-3′-fluoro-5′-(trifluoromethyl)-[1,1′-biphenyl]-4-yl)amino)methyl)-4,5-difluorophenyl)picolinamido)propanoic acid] |
| 30.1 | 20 | Cc1cc(Cl)ccc1-c1ccc(NC(=O)c2ccc(C(F)(F)F)cc2-c2ccc(C(=O)NCCC(=O)O)nc2)cc1 [Compound 154, 3-(5-(2-((4′-chloro-2′-methyl-[1,1′-biphenyl]-4-yl)carbamoyl)-5-(trifluoromethyl)phenyl)picolinamido)propanoic acid] |
